Tested on: colon 26 carcinoma
Experiment: Antitumor activity in colon 26 carcinoma bearing mice
Conditions: 80.6 mg/kg i.p. (text: 80 mg/kg) days 4, 5, 11, 12, 14, 15, hydrochloride

`COc1cc(Nc2c3c(nc4cc5c(cc24)OCO5)CCCC3=O)cc(OC)c1OC.Cl` [SGR307.HCl, 6,7-(Methylenedioxy)-9-(3,4,5-trimethoxyphenylamino)-3,4-dihydroacridin-1(2H)-one, hydrochloride] was tested, and the “Note (activity / toxicity assessment)” value was “toxic” and the “Note (activity / toxicity assessment)” value (listed as SGR307 HCl) was “Toxic”.

Reference: patent publication US9783547B2, “Water soluble 4-azapodophyllotoxin analogs” (CENTRE NATIONAL DE LA RECHERCHE SCIENTIFIQUE (CNRS), priority 2014, dated 2017)
